Apparent affinities of Ab-95 variants for a coronavirus HR2 peptide

Values reported by Engelhart et al. 2022, doi:10.1038/s41597-022-01779-4 (FLAb copy).

The target is the same throughout: PDVDLGDISGINAS, from the HR2 region of SARS-CoV-2 spike.

The variants keep the heavy chain, the linker and the frameworks of Ab-95 (scFv order VH, a (GGGGS)3 linker, VL).
VH: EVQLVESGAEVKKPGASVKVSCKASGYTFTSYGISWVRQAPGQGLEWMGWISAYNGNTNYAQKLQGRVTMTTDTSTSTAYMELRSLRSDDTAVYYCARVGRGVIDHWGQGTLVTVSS
VL: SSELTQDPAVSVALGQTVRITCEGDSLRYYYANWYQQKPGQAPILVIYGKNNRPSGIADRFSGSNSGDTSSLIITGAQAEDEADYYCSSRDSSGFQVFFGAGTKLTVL

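The parent was found by panning a naive human phage display library on the peptide. Variants in AAYL52 differ from the parent at up to three CDR positions; double and triple changes were sampled at random. The assay is AlphaSeq: two haploid yeast populations carry antibody and antigen on their surface. Mating (16 h, 30 °C) was followed by selection of diploids and sequencing of their barcodes. A regression on co-assayed BCL2-family reference pairs converts the normalised counts of each replicate to an apparent Kd. Each pool was mated in three replicate cultures.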

The whole VL of each variant is written out.
All variants listed here change E23 of the VL, counted from its first residue.
Kd is apparent (estimated from mating counts) and averaged on the log scale over replicates with a signal. Smaller is tighter.
An entry "no signal" has no value in the source: the pair was not observed among the diploids in any replicate. This suggests poor binding but is not conclusive.

For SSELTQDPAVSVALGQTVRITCTDDSLRQYYANWYQQKPGQAPILVIYGKNNRPSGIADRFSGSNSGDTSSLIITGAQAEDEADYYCSSRDSSGFQVFFGAGTKLTVL, the assay gave 1.0 µM (3 of 3 replicates; controls 4 of 9).
For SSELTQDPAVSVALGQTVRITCWGDSLRYYYANWYQQKPGQAPILVIYGKANRPSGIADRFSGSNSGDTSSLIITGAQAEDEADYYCSSRDSSGFQDFFGAGTKLTVL, the assay gave 5.2 µM (3 of 3 replicates; controls 2 of 9).
For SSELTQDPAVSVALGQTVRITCQGDSLRYYYANWYQQKPGQAPILVIYGKNNRPSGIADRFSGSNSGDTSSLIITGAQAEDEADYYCSSRDGSGFQVWFGAGTKLTVL, the assay gave 100 nM (3 of 3 replicates; controls 5 of 9).
For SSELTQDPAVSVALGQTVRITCNGDSLRYYGANWYQQKPGQAPILVIYGKNNRPSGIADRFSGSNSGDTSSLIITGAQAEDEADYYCSSRDSSGFPVFFGAGTKLTVL, the assay gave 120 nM (3 of 3 replicates; controls 7 of 9).
For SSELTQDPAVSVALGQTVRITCKGDSLRYYYANWYQQKPGQAPILVIYGKNNRPSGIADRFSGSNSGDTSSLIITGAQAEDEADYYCSSRDISGFQVFFGAGTKLTVL, the assay gave 440 nM (3 of 3 replicates; controls 3 of 9).
For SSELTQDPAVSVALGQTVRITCFGDSLAYYYHNWYQQKPGQAPILVIYGKNNRPSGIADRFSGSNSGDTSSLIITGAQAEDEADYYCSSRDSSGFQVFFGAGTKLTVL, the assay gave no signal (0 of 3 replicates; controls 3 of 9).
For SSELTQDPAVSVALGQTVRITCYGDSLRYYYANWYQQKPGQAPILVIYGKNNRPSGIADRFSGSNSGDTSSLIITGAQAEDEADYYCSSRDSSYFQVFFGAGTKLTVL, the assay gave 1.8 µM (3 of 3 replicates; controls 3 of 9).
For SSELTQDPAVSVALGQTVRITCTGDSLRYYYANWYQQKPGQAPILVIYFKNNRPSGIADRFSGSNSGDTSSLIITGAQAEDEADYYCSSRDSSGFQVFFGAGTKLTVL, the assay gave 10 µM (2 of 3 replicates; controls 4 of 9).
For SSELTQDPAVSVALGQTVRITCHGDSLRYYYANWYQQKPGQAPILVIYGKNNWPSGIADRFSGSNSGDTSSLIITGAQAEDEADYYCSSRDSSGFQVFFGAGTKLTVL, the assay gave 2.6 µM (3 of 3 replicates; controls 5 of 9).
For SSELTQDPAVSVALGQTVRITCIGDSLRYYYANWYQQKPGQAPILVIYGKNNRPSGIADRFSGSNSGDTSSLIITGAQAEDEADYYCSRRDSEGFQVFFGAGTKLTVL, the assay gave 3.0 µM (1 of 3 replicates; controls 4 of 9).
For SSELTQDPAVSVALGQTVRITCFGASLRYYYANWYQQKPGQAPILVIYGKNNRPSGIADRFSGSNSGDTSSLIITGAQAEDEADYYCSSIDSSGFQVFFGAGTKLTVL, the assay gave 21 µM (1 of 3 replicates; controls 0 of 9).
For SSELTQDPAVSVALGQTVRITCNGDSWRYYYPNWYQQKPGQAPILVIYGKNNRPSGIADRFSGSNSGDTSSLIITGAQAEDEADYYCSSRDSSGFQVFFGAGTKLTVL, the assay gave 1.1 µM (3 of 3 replicates; controls 5 of 9).
For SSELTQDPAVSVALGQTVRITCGGDSLRYYYANWYQQKPGQAPILVIYGKNARPSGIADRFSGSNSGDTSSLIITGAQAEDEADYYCSSRDSSGFGVFFGAGTKLTVL, the assay gave 370 nM (3 of 3 replicates; controls 3 of 9).
For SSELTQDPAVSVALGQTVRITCSGDSLRYYYANWYQQKPGQAPILVIYGKNNRPSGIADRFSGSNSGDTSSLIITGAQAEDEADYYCSPPDSSGFQVFFGAGTKLTVL, the assay gave 43 µM (2 of 3 replicates; controls 5 of 9).
For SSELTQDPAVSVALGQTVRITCAGDSLYYYYANWYQQKPGQAPILVIYGKNNRPSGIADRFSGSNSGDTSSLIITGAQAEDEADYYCSSRDSSGFQVFFGAGTKLTVL, the assay gave 290 nM (3 of 3 replicates; controls 3 of 9).
For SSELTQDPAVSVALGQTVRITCYADSLRYYYCNWYQQKPGQAPILVIYGKNNRPSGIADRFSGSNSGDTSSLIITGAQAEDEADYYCSSRDSSGFQVFFGAGTKLTVL, the assay gave 7.8 µM (3 of 3 replicates; controls 2 of 9).
For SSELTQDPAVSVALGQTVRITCPGDSLRYYYANWYQQKPGQAPILVIYGKYNRPSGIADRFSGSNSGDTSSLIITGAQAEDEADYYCCSRDSSGFQVFFGAGTKLTVL, the assay gave 30 µM (1 of 3 replicates; controls 2 of 9).
For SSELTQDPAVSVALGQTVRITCKGDSERYYYANWYQQKPGQAPILVIYGKINRPSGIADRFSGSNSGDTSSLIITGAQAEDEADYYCSSRDSSGFQVFFGAGTKLTVL, the assay gave 3.2 µM (1 of 3 replicates; controls 3 of 9).
For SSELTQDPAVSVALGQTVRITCIGDSHMYYYANWYQQKPGQAPILVIYGKNNRPSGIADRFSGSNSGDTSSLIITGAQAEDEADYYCSSRDSSGFQVFFGAGTKLTVL, the assay gave 5.1 µM (3 of 3 replicates; controls 5 of 9).
For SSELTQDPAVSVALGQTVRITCQGDSLRYYYANWYQQKPGQAPILVIYGKNNRPSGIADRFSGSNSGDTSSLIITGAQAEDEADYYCSSRDSSGTQVFFGAGTKLTVL, the assay gave 90 nM (2 of 3 replicates; controls 0 of 9).

Empty control strains, which show no peptide, gave a signal in 28% of pairings with library AAYL52; the median was 8.2 µM and 95% of these signals were weaker than 800 nM. No background was subtracted. Also given: how often the same scFv was detected with the empty control strains.
Parent in this assay: reference entry 200 nM, copy in this library 180 nM.